Literature values in patent US12594283B2 (The Medical College of Wisconsin, Inc., priority 2019, dated 2026).

Target: T1, cyt bc1 (Plasmodium falciparum, UniProt Q02768)
T1 sequence (Q02768 1-376): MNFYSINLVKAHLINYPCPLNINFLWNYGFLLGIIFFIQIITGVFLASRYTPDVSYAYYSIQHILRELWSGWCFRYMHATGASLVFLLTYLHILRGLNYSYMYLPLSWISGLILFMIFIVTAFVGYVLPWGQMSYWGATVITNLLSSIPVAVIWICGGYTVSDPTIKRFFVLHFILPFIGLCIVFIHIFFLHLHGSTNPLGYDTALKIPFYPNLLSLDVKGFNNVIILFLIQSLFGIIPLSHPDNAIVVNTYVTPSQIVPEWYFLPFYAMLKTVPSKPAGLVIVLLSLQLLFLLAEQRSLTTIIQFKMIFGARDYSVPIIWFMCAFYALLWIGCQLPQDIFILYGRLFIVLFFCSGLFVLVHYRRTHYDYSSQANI
Conditions: read-out: IC50 for inhibition of cyt bc1; malarial parasites; cited from earlier work

For O=C1C(O)=C([C@H]2CC[C@H](c3ccc(Cl)cc3)CC2)C(=O)c2ccccc21 [ATO, trans-2-[4-(4-chlorophenyl)cyclohexyl]-3-hydroxy-1,4-naphthalene-dione], the IC50 is given as ~3 nM.
